Assay results published in ChEMBL document CHEMBL1140106, “Blocking estrogen signaling after the hormone: pyrimidine-core inhibitors of estrogen receptor-coactivator binding” (J Med Chem, 2008).

Amino acid sequences for entries named in this document (tags omitted).
UniProt Q92731, whole entry: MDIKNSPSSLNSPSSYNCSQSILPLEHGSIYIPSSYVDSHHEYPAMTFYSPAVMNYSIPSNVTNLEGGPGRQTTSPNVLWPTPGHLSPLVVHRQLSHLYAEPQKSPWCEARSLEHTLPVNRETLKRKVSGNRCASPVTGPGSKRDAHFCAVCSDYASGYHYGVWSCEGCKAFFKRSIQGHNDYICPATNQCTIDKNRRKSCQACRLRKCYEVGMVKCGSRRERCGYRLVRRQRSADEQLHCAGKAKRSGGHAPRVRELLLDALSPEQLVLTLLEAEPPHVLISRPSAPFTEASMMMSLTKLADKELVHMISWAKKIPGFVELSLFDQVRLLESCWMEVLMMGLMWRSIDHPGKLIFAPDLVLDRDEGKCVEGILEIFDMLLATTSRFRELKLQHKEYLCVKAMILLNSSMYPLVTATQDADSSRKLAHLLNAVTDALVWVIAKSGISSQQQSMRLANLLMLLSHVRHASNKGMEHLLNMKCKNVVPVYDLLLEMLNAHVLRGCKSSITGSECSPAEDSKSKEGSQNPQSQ
UniProt P03372, whole entry: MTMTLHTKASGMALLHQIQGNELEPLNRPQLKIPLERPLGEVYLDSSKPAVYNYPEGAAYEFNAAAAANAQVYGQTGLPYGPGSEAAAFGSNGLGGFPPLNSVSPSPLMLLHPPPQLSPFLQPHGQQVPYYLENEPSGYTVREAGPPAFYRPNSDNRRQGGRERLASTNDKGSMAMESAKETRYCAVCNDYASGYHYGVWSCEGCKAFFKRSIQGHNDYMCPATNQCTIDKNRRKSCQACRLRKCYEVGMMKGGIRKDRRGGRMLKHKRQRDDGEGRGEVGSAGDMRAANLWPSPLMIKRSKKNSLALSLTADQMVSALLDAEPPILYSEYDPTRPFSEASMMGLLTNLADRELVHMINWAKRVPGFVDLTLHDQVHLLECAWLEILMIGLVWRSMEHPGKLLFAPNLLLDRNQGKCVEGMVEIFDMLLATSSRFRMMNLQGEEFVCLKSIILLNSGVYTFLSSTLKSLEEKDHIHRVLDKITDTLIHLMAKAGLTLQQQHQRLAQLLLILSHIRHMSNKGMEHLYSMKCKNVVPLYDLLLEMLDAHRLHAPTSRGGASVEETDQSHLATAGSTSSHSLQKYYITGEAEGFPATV

Experiments:
[1] = biological target: Estrogen receptor beta (Homo sapiens, UniProt Q92731); assay: Displacement of [3H]estradiol from full length purified human ERbeta relative to estradiol
[2] = biological target: Estrogen receptor (Homo sapiens, UniProt P03372); assay: Displacement of [3H]estradiol from full length purified human ERalpha relative to estradiol

| Structure (SMILES) | RBA [1] [%] | RBA [2] [%] |
| --- | --- | --- |
| CC(C)CNc1cc(CCc2cccc3ccccc23)nc(NCC(C)C)n1 | < 0.001 | < 0.001 |
| CC(C)CCc1cc(NCC(C)C)nc(N(C)CC(C)C)n1 | < 0.001 | < 0.001 |
